According to US5422350A, “Nitrogen substituted acridine and cytochrome P450 inhibitors and methods of use” (priority 1992, dated 1995):

Columns and labels:
[1] = test system: rat hepatocytes; experiment: Irreversible binding of tacrine-derived radioactivity to rat hepatocytes with chloroquine; type: in vitro ADME; details: for tacrine-equivalents bound per mg hepatic protein: Tacrine + Chloroquine (100 μM)
Description: D. J. Back, H. S. Purba, C. Staiger, M. L. Orme, A. M. Breckenridge, "Inhibition of Drug Metabolism by the Anti Malarial Drugs Chloroquine and Primaquine in the Rat", BIOCHEM. PHARMACOL., Vol. 32, pp. 257-264 (1983). Ethoxyresorufin O-deethylation is selectively catalyzed by P450 1A2. C. Gleizes, C. Eeckhoutte, T. Pineau, M. Alvinerie, and P. Galtier, "Inducing Effect of Oxfendazole on Cytochrome P4501A2 in Rabbit Liver", BIOCHEM. PHARMACOL. VOL. 41, pp. 1813-1820 (1991).

[2] = test system: P450 2D6; experiment: Tacrine as substrate of P450 2D6: co-incubation with quinidine in human liver microsomes; type: in vitro ADME; details: for 1-Hydroxytacrine / Tacrine: quinidine +
Description: U. A. Meyer, J. Gut, T. Kronbach, C. Skoda, U. T. Meier, and T. Catin, "The Molecular Mechanisms of Two Common Polymorphisms of Drug Oxidation-Evidence for Functional Changes in Cytochrome P-450 Isozymes Catalysing Bufuralol and Mephenytoin Oxidation", XENOBIOTICA, Vol 16, pp 449-464 (1986). […] K. Brosen and L. F. Gram, "Quinidine Inhibits the 2-Hydroxylation of Imipramine and Desipramine but not the Demethylation of Imipramine", EUR J CLIN. PHARMACOL., Vol 37, pp 155-160 (1989).

CCN(CC)CCCC(C)Nc1ccnc2cc(Cl)ccc12 (stereo not shown) [Chloroquine, 7-chloro-4-(4-diethylamino-1-methylbutylamino)quinoline]
inhibition of tacrine irreversible binding as well as metabolism ([1]; 14C-tacrine 5 μM, chloroquine 100 μM): inhibition of tacrine irreversible binding as well as metabolism
tacrine-equivalents bound per mg hepatic protein ([1]; 5 min): 0.005 nmol
tacrine-equivalents bound per mg hepatic protein ([1]; 15 min): 0.012 nmol
tacrine-equivalents bound per mg hepatic protein ([1]; 30 min): 0.016 nmol
tacrine-equivalents bound per mg hepatic protein ([1]; 60 min): 0.034 nmol
tacrine-equivalents bound per mg hepatic protein ([1]; 90 min): 0.039 nmol
tacrine-equivalents bound per mg hepatic protein ([1]; 120 min): 0.041 nmol
tacrine-equivalents bound per mg hepatic protein ([1]; 180 min): 0.046 nmol

C=C[C@H]1C[N@@]2CC[C@H]1C[C@@H]2[C@@H](O)c1ccnc2ccc(OC)cc12 [Quinidine]
1-Hydroxytacrine ([2]; 0 min): 0 nMoles per 3 mL incubate
Tacrine ([2]; 0 min): 2.02 nMoles per 3 mL incubate
1-Hydroxytacrine ([2]; 5 min): 0.383 nMoles per 3 mL incubate
Tacrine ([2]; 5 min): 1.22 nMoles per 3 mL incubate
1-Hydroxytacrine ([2]; 10 min): 0.606 nMoles per 3 mL incubate
Tacrine ([2]; 10 min): 0.816 nMoles per 3 mL incubate
1-Hydroxytacrine ([2]; 20 min): 1.067 nMoles per 3 mL incubate
Tacrine ([2]; 20 min): 0.401 nMoles per 3 mL incubate
1-Hydroxytacrine ([2]; 40 min): 1.192 nMoles per 3 mL incubate
Tacrine ([2]; 40 min): 0.037 nMoles per 3 mL incubate
1-Hydroxytacrine ([2]; 60 min): 1.209 nMoles per 3 mL incubate
Tacrine ([2]; 60 min): 0.033 nMoles per 3 mL incubate
effect on irreversible binding of tacrine to human hepatic microsomal proteins ([2]; co-incubation): not effected
effect on conversion of tacrine to 1-hydroxytacrine ([2]; human liver microsomes): did not inhibit
